The test concerns the target Bcl-2 (Homo sapiens, UniProt P10415). Briefly: Bcl-2/Bcl-XL HTRF assay. For orientation: In TR-FRET formats the signal depends on donor and acceptor labels being close together.

Chains of the proteins cited; added tags and fusions are not shown.
UniProt P10415, whole entry: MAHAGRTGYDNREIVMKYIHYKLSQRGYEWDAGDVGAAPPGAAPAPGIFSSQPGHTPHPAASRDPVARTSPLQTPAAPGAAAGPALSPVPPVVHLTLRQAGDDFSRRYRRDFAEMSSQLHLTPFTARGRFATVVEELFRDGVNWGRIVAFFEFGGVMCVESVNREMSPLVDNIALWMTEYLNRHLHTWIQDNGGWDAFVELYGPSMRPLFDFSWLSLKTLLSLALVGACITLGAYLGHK

Bounds are passed on as bounds.

For orientation: IC50 means the point on the concentration scale where inhibition reaches its midpoint. Low values mean inhibition by little substance, high ones a need for much substance.

On to `CC1(C)CCC(c2ccc(Cl)cc2)=C(CN2CCN(c3ccc(C(=O)NS(=O)(=O)c4ccc(N[C@H](CCN5CCOCC5)CSc5ccccc5)c(S(=O)(=O)C(F)(F)F)c4)cc3)CC2)C1` [ABT-263, Navitoclax, reference compound], for which the half-inhibitory concentration (IC50) is less than 10 nM.

The record behind these values is patent US20220273666A1, “NANOPARTICLE FORMULATION OF BCL-2 INHIBITOR” (Recurium IP Holdings, LLC, priority 2019, published 2022).
